Measured values: US20220409582A1
pIC50: −log10 of the molar value.

Experiments:
TFK-1 cell line = experiment: Cell TitreGlo cell viability, TFK-1 cholangiocarcinoma cells; type: cell-based, human
EGI-1 cell line = experiment: Cell TitreGlo cell viability, EGI-1 cholangiocarcinoma cells; conditions: IC50 in H69 normal cells / IC50 in EGI-1; panobinostat + secondary drug at IC20
CC-SW-1 cell line = experiment: Cell TitreGlo cell viability, CC-SW-1 cholangiocarcinoma cells; conditions: IC50 in H69 normal cells / IC50 in CC-SW-1; panobinostat + secondary drug at IC20
HuCC-T1 cell line = experiment: Cell TitreGlo cell viability, HuCC-T1 cholangiocarcinoma cells; conditions: IC50 in H69 normal cells / IC50 in HuCCT-1; panobinostat + secondary drug at IC20

| SMILES | pIC50 (TFK-1 cell line; Homo sapiens, 48 h) | Therapeutic index Combination (TFK-1 cell line; IC50 in H69 normal cells / IC50 in TFK-1, panobinostat + secondary drug at IC20) | Therapeutic index Combination (EGI-1 cell line) | Therapeutic index Combination (CC-SW-1 cell line) | Therapeutic index Combination (HuCC-T1 cell line) |
| --- | --- | --- | --- | --- | --- |
| CCNC(=O)C[C@@H]1N=C(c2ccc(Cl)cc2)c2cc(OC)ccc2-n2c(C)nnc21 [Molibresib, 2-[(4S)-6-(4-chlorophenyl)-8-methoxy-1-methyl-4H-[1,2,4]triazolo[4,3-a][1,4]benzodiazepin-4-yl]-N-ethylacetamide] | 6.74 |  |  |  |  |
| CC(=O)Nc1cccc(-n2c(=O)n(C3CC3)c(=O)c3c(Nc4ccc(I)cc4F)n(C)c(=O)c(C)c32)c1 [Trametinib] |  | 2.2 | 2.2 | 10.3 | 1.9 |
